Measured values reported in US9993457B2, “Method of improving visual processing, visual acuity, or both by administering compositions comprising RRR-alpha-tocopherol and carotenoid to infants” (ABBOTT LABORATORIES, priority 2014, dated 2018).
Like-named read-outs stand apart in the source and are kept apart here.

Key:
[1] = not given; remark: listed apart in the source

mean 2S-alpha-tocopherol percentage (of total alpha-tocopherol), high vs low zeaxanthin group (frontal cortex (FC)): not significantly different
mean 2S-alpha-tocopherol percentage (of total alpha-tocopherol), high vs low zeaxanthin group (hippocampus (HPC)): not significantly different
mean 2S-alpha-tocopherol percentage (of total alpha-tocopherol), high vs low zeaxanthin group (occipital cortex (OC), p=0.08): trend of less
mean 2S-alpha-tocopherol percentage (of total alpha-tocopherol), high vs low β-carotene group ([1]; frontal cortex (FC)): not significantly different
mean 2S-alpha-tocopherol percentage (of total alpha-tocopherol), high vs low β-carotene group ([1]; hippocampus (HPC)): not significantly different
mean 2S-alpha-tocopherol percentage (of total alpha-tocopherol), high vs low β-carotene group ([1]; occipital cortex (OC), p<0.05): significantly less
Substance: 2S-alpha-tocopherol
